# This is a selection; strong and weak results do not stand in their true shares. Some tests of the compounds listed are not included; inactive here does not mean inactive elsewhere. Active and inactive are the calls of the source. Rule as the data show it: active = activity change below about -75% (passing the limit was not always enough); inconclusive = no clear call, values can overlap the other calls.
# Assay: modulation of AI-2 quorum-sensing luminescence – JMH597 strain, luminescence/OD600 ratio, primary screen (AID 2094)
# Settings: Vibrio harveyi JMH597 AI-2 luminescence/OD600 ratio, 9 h; at 7.5 µM; stronger effect = lower value; 0 = neutral-control median; strain lacks LuxN and CqsS sensors
row,Structure (SMILES),activity change
1,CN1[C@@H]2CC[C@H]1CC(OC(=O)C(O)(c1ccccc1)c1ccccc1)C2 (some centres undefined),inactive: 7.58%
2,O=C(NCC1(N2CCCCC2)CCCCC1)c1cc([N+](=O)[O-])ccc1Cl,inactive: 22.1%
3,Cc1ccc(C(=O)NCC2(N3CCCCC3)CCCCC2)cc1,inactive: 17.7%
4,COc1cc(SC)ccc1C(=O)NCC1(N(C)C)CCCCC1,inactive: 17.1%
5,CCN(CC)CC(C)C(C)OC(=O)C(O)(c1ccccc1)c1ccccc1 (centres undefined),inactive: -0.527%
6,CC(C)N1C(=O)CC2(CCN(CCOC(=O)C(O)(c3ccccc3)c3ccccc3)CC2)C1=O,inactive: 36.3%
7,CN(C)C1CCCC1OC(=O)C(O)(c1ccccc1)c1ccccc1 (centres undefined),inactive: -1.42%
8,CN(C)c1ccc(C(=O)NCC2(N(C)C)CCCCC2)cc1,inactive: 10.7%
9,Cc1ccccc1C(=O)NCC1(N2CCCCC2)CCCCC1,inactive: 1.11%
10,COc1ccc(C(=O)NCC2(N(C)C)CCCCC2)cc1,inactive: 20%
11,O=C(NCC1(N2CCCCC2)CCCCC1)c1cccc(Br)c1,inactive: 19.2%
12,Cc1cc(C(=O)NCC2(N3CCCCC3)CCCCC2)ccc1[N+](=O)[O-],inactive: 4.71%
13,CCN1CCCC(OC(=O)C2(O)c3ccccc3C=Cc3ccccc32)C1 (centres undefined),inactive: 23.2%
14,O=C(NCC1(N2CCCCC2)CCCCC1)c1cc(F)c(F)cc1Cl,inactive: 11.4%
15,C=CCN1CCN(CCOC(=O)C(O)(c2ccccc2)c2ccccc2)CC1,inactive: 11.5%
16,COc1cc(C(=O)NCC2(N(C)C)CCCCC2)c([N+](=O)[O-])cc1OC,inactive: 20%
17,CN(C)C1(CNC(=O)c2ccc(Br)cc2)CCCCC1,inactive: 18.2%
18,O=C(NCC1(N2CCCCC2)CCCCC1)c1cccc(Cl)c1,inactive: 28.1%
19,COc1ccc(Cl)cc1C(=O)NCC1(N(C)C)CCCCC1,inactive: -1.38%
20,COc1cccc(C(=O)NCC2(N3CCCCC3)CCCCC2)c1,inactive: 34.7%
21,O=C(OC1CN2CCC1CC2)C(CO)(c1ccccc1)c1ccccc1 (centres undefined),inactive: 1.02%
22,CC(C)Oc1ccc(C(=O)NCC2(N(C)C)CCCCC2)cc1,inactive: 17.8%
23,CN(C)c1cccc(C(=O)NCC2(N(C)C)CCCCC2)c1,inactive: 13.9%
24,COc1ccc(Br)c(C(=O)NCC2(N3CCCCC3)CCCCC2)c1,inactive: 30.5%

# From PubChem BioAssay AID2094 (Broad Institute, 2009)
